{"sequences": {"note": "Amino acid sequences for entries named in this document (tags omitted). Residues count along the entry.", "UniProt Q62645, 28-1323 limits assumed": "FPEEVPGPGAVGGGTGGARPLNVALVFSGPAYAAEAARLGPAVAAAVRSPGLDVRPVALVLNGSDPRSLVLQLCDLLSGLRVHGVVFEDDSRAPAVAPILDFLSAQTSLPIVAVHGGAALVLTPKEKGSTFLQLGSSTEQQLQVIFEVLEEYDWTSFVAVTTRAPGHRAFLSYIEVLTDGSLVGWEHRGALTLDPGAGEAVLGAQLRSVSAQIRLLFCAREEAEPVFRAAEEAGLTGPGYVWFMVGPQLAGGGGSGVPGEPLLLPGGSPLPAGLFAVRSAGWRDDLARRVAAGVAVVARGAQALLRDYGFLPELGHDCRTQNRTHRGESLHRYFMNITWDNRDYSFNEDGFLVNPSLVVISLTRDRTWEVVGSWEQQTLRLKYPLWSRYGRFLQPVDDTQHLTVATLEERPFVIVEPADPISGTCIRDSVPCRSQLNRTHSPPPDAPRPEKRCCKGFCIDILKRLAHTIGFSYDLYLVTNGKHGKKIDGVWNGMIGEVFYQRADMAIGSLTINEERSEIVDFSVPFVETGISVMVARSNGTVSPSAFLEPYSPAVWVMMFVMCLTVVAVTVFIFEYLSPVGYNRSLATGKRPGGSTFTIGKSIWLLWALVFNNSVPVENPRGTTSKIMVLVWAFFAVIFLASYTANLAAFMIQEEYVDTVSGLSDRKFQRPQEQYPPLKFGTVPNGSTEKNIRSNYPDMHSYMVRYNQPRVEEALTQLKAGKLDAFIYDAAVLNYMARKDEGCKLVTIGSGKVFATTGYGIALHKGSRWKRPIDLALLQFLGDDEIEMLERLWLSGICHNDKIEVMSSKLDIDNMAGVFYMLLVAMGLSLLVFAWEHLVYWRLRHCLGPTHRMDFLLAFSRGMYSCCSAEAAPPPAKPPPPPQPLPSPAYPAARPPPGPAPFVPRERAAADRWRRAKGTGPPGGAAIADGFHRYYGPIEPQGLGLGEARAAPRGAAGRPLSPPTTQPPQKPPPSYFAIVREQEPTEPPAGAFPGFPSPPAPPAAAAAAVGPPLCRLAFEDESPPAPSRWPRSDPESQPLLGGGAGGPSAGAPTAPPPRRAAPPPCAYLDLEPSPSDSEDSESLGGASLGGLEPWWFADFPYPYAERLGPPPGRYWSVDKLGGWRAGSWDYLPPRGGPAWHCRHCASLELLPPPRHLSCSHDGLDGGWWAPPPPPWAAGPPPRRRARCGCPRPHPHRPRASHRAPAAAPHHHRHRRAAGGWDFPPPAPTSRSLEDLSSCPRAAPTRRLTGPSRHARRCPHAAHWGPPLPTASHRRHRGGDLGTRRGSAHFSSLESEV"}, "source": "paper PMC10485906", "about": "“Development of a Dihydroquinoline–Pyrazoline GluN2C/2D-Selective Negative Allosteric Modulator of the N-Methyl-D-aspartate Receptor” (ACS Chemical Neuroscience, 2023)", "target": "GluN1/GluN2D (Rattus norvegicus, UniProt Q62645)", "experiment": "Whole-cell voltage-clamp recordings, HEK cells, GluN1/GluN2D (agonist dependence)", "note": "Where two headings read alike, the source gives them in different places."}
{"compound": "O=C(O)CCC(=O)N1N=C(c2c(-c3ccc(Cl)cc3)c3ccccc3[nH]c2=O)C[C@H]1c1ccc(Cl)cc1", "values": [{"measurement": "τdeactivation following glutamate removal", "setting": "0.03 μM compound, mean ± SEM", "result": "7.3 ± 0.6", "unit": "s"}, {"measurement": "τdeactivation following glutamate removal", "setting": "0.1 μM compound, mean ± SEM", "result": "5.6 ± 0.8", "unit": "s"}, {"measurement": "τdeactivation following glutamate removal", "setting": "1 μM compound, mean ± SEM", "result": "9.2 ± 0.5", "unit": "s"}, {"measurement": "τdeactivation following glutamate removal", "setting": "3 μM compound, mean ± SEM", "result": "9.2 ± 0.5", "unit": "s"}, {"measurement": "Kd", "setting": "inhibitor preapplied, from kON and kOFF, supplement", "result": 200, "unit": "nM"}, {"measurement": "kOFF", "setting": "inhibitor preapplied, linear regression of 1/τinhibition vs concentration", "result": 0.11, "unit": "s^–1"}, {"measurement": "fold-change in IC50 for the peak and steady-state current responses", "setting": "mean ± SEM, compared by ANOVA", "result": "3.9 ± 0.3"}, {"measurement": "IC50 fold higher during peak compared to steady-state", "setting": "ratio of IC50 values", "result": 4, "unit": "fold"}, {"measurement": "IC50", "setting": "read-out: IC50 peak (95% CI), peak current response to glutamate, inhibitor preapplied", "result": 2100, "unit": "nM"}, {"measurement": "IC50", "setting": "read-out: IC50 pulse 1 (95% CI), first of 5 brief NMDA (500 μM)/glycine (250 μM) pulses at 1 s intervals", "result": 1800, "unit": "nM"}, {"measurement": "IC50", "setting": "read-out: IC50 pulse 5 (95% CI), fifth of 5 brief NMDA (500 μM)/glycine (250 μM) pulses at 1 s intervals", "result": 490, "unit": "nM"}, {"measurement": "IC50", "setting": "read-out: IC50 steady-state (95% CI), steady-state current response to glutamate, inhibitor preapplied", "result": 510, "unit": "nM"}, {"measurement": "IC50 fold higher at first pulse compared to fifth pulse", "setting": "trains of brief agonist applications", "result": 2.4, "unit": "fold"}]}
